Chains of the proteins cited; added tags and fusions are not shown. Lines headed by an entry give the natural chain unless they say otherwise; changes in a name come on top.
UniProt Q9QYN8: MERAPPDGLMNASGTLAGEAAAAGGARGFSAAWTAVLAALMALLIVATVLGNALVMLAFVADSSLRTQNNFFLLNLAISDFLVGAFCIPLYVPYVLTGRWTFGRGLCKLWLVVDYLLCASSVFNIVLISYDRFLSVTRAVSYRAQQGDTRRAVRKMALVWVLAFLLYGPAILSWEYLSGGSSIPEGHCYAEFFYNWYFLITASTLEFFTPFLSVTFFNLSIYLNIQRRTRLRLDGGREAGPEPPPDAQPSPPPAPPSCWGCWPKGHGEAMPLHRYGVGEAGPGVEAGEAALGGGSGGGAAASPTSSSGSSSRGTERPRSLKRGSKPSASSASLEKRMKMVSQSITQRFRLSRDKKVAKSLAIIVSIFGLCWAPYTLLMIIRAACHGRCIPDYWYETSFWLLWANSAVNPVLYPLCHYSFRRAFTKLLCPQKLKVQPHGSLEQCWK

According to ChEMBL document CHEMBL1147428, “A new class of potent non-imidazole H(3) antagonists: 2-aminoethylbenzofurans” (Bioorg Med Chem Lett, 2004):

Biological target: Histamine H3 receptor (Rattus norvegicus, UniProt Q9QYN8)
Assay: Binding potency was determined by displacement of [3H]N-alpha-methyl histamine from histamine H3 receptor of rat cortical membranes
Assay type: cell membranes, Membrane

Structure (SMILES)	Ki [nM]
CC1CCCN1CCc1cc2cc(-c3ccc(C#N)cc3)ccc2o1 (configuration not stated)	6.5
C[C@@H]1CCCN1CCc1cc2cc(-c3ccc(C#N)cc3)ccc2o1	3.22
